# This is a selection; strong and weak results do not stand in their true shares. Active and inactive are the calls of the source. Rule as the data show it: active = inhibition above about 40%; inactive = the rest.
# Chains of the proteins cited; added tags and fusions are not shown.
# UniProt P08183, whole entry: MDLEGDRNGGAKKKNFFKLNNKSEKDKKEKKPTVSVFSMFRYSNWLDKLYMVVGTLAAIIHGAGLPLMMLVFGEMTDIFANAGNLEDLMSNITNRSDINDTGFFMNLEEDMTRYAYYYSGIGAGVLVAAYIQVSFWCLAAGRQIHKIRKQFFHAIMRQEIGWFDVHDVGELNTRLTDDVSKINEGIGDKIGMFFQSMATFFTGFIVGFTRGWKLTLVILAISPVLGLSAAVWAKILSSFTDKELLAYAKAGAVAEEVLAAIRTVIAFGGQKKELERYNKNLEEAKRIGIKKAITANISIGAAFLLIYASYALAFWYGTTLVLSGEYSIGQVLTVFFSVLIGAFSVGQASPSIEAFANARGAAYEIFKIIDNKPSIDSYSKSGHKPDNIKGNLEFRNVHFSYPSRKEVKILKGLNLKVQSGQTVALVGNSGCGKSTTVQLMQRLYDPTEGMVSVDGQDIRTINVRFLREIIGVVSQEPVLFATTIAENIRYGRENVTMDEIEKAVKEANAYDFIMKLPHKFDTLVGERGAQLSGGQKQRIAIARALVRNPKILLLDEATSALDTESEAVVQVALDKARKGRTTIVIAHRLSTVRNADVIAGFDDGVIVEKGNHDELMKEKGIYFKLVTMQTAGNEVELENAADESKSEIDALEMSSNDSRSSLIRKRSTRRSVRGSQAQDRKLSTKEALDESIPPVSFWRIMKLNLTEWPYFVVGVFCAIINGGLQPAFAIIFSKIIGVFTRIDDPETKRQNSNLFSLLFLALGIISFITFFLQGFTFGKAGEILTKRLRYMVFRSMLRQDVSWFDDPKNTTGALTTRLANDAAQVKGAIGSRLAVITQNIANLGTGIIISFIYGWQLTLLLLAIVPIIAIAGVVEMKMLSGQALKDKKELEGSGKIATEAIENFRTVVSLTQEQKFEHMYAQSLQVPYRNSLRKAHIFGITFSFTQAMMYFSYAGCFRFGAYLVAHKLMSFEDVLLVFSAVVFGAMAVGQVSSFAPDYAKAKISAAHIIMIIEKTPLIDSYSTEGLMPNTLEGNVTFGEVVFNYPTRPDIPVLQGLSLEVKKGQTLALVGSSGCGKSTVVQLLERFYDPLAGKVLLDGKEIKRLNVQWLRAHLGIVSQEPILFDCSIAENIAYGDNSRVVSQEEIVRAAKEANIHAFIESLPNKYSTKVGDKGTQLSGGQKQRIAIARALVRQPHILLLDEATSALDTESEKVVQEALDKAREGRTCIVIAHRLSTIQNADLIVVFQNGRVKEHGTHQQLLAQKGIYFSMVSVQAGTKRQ
# Biological target: ATP-dependent translocase ABCB1 (Homo sapiens) (UniProt P08183)
# Assay: blockers of ABCB1-mediated dye efflux – cell-based, multiplex, flow cytometry, ABCG2 counter-screen, primary screen (AID 1326);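 also: 0% = vehicle and 100% = reference inhibitor; higher value means more JC-1 retained so stronger ABCB1 efflux block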
# Conditions: CCRF-Adr cells, JC-1 efflux, at 6.6 µM, stronger effect = higher value
row,SMILES,inhibition
1,Cc1c(NP(C)(=O)Oc2ccc(C(C)C)cc2)c(=O)n(-c2ccccc2)n1C (stereo not drawn),inactive: 0.3%
2,O=[N+]([O-])c1cc([N+](=O)[O-])c(Nc2ccccn2)c([N+](=O)[O-])c1,inactive: 0.06%
3,CP(=O)(Nc1ccccn1)Oc1ccccc1 (stereo not drawn),inactive: 0.83%
4,COc1ccccc1OP(C)(=O)Nc1ccc(C)cc1C (stereo not drawn),inactive: 0.66%
5,CCc1ccc(OP(C)(=O)O)cc1,inactive: -0.13%
6,COc1ccc(OP(C)(=O)Nc2ccccn2)cc1 (stereo not drawn),inactive: 0.13%
7,CN(C)CCOC(=O)C(O)(c1ccccc1)C1CCCC1 (stereo not drawn),inactive: -0.06%
8,Cc1nc2ccc3ccccc3c2o1.O=[N+]([O-])c1cc([N+](=O)[O-])c(O)c([N+](=O)[O-])c1,inactive: 0.36%
9,CP(=O)(Nc1ccc(Cl)cc1Cl)Oc1ccccc1 (stereo not drawn),inactive: 1.07%
10,CP(=O)(OCCOc1ccccc1)OCCOc1ccccc1,inactive: 1%
11,Cc1cc(C)cc(OP(C)(=O)Nc2cccc(C(F)(F)F)c2)c1 (stereo not drawn),inactive: 0.91%
12,COc1ccccc1OP(C)(=O)Nc1ccc(C)c(C)c1 (stereo not drawn),inactive: 0.12%
13,COc1ccc(OP(C)(=O)Nc2ccccc2Br)cc1 (stereo not drawn),inactive: 0.59%
14,CCOC(=O)c1ccc(NP(C)(=O)Oc2ccc(Cl)cc2)cc1 (stereo not drawn),inactive: 1.4%
15,CP(=O)(OC12CC3CC(CC(C3)C1)C2)OC12CC3CC(CC(C3)C1)C2,inactive: 0.09%
16,COc1ccccc1OP(C)(=O)Nc1ccccc1Br (stereo not drawn),inactive: 0.08%
17,CC(C)(C)c1ccc(OP(C)(=O)O)cc1,inactive: -0.01%
18,CP(=O)(Nc1ccc(Cl)cc1)Oc1ccc(F)cc1 (stereo not drawn),inactive: 1.01%
19,CN(C)C(=O)c1c([N+](=O)[O-])cc([N+](=O)[O-])cc1[N+](=O)[O-],inactive: 0.39%
20,CCN(CC)CC(O)COC(=O)C(O)(c1ccccc1)C1CCCCC1 (stereo not drawn),inactive: 0.34%
21,COc1ccc(OP(C)(=O)Nc2ccc(Br)cc2)cc1 (stereo not drawn),inactive: 0.8%
22,CP(=O)(Oc1ccccc1)N1CCOC1=O (stereo not drawn),inactive: 0.26%
23,CCc1ccc(OP(C)(=O)Nc2cccnc2)cc1 (stereo not drawn),inactive: -0.13%

row,SMILES,inhibition
1,CP(=O)(Nc1ccc2c(c1)OCCO2)Oc1ccccc1 (stereo not drawn),inactive: -0.5%
2,Cc1ccccc1NP(C)(=O)Nc1ccccc1C,inactive: 0.45%
3,CCOP(C)(=S)SCC(=O)NC(C)(CC)C(=O)O (stereo not drawn),inactive: -2.82%
4,O=[N+]([O-])c1cc([N+](=O)[O-])c(NCC2CCS(=O)(=O)C2)c([N+](=O)[O-])c1 (stereo not drawn),inactive: 1.29%
5,COc1ccc(OP(C)(=O)Nc2cccc(Br)c2)cc1 (stereo not drawn),inactive: 2.02%
6,CN(C)CCOC(=O)C(O)(c1ccccc1)C1CCCCC1 (stereo not drawn),inactive: 0.34%
7,COc1ccc(NP(C)(=O)Oc2ccccc2OC)cc1 (stereo not drawn),inactive: 0.51%
8,CCN(CC)CCCOC(=O)C(O)(c1ccccc1)C1CCCCC1 (stereo not drawn),inactive: 0.29%
9,CP(=O)(Nc1ccccc1)Oc1ccc(F)cc1 (stereo not drawn),inactive: 0.34%
10,CCOC(=O)c1ccc(NP(C)(=O)Oc2ccc(F)cc2)cc1 (stereo not drawn),inactive: 0.57%
11,COc1ccc(OP(C)(=O)Nc2ccc(SC(F)(F)F)cc2)cc1 (stereo not drawn),inactive: 0.16%
12,O=C(OCCN1CCN(CCOCc2ccccc2)CC1)C(O)(c1ccccc1)c1ccccc1,inactive: 1.8%
13,CP(=O)(Nc1ccccc1F)Oc1ccccc1 (stereo not drawn),inactive: 1.7%
14,CC(C)c1ccc(OP(C)(=O)Nc2ccc(SC(F)(F)F)cc2)cc1 (stereo not drawn),inactive: 0.07%
15,Cc1ccc(C)c(NP(C)(=O)Oc2ccccc2)c1 (stereo not drawn),inactive: -0.07%
16,Cc1cc(C)cc(OP(C)(=O)Nc2ccccn2)c1 (stereo not drawn),inactive: 1.12%
17,CP(=O)(Nc1cccc(Br)c1)Oc1ccccc1 (stereo not drawn),inactive: 1.42%
18,CCOC(=O)c1ccc(NP(C)(=O)Oc2cc(C)cc(C)c2)cc1 (stereo not drawn),inactive: 0.83%
19,Cc1cc(C)cc(OP(C)(=O)Nc2ccc(C)cc2C)c1 (stereo not drawn),inactive: -0.16%
20,CC1=NCCc2c1[nH]c1ccccc21.O=[N+]([O-])c1cc([N+](=O)[O-])c(O)c([N+](=O)[O-])c1,inactive: -0.22%
21,CN1CCCCC1COC(=O)C1(O)c2ccccc2CCc2ccccc21 (stereo not drawn),inactive: 0.56%
22,COc1ccccc1OP(C)(=O)Nc1c(C)cccc1C (stereo not drawn),inactive: 0.21%
23,CCCOc1ccc(NP(C)(=O)Oc2ccc(Cl)cc2)cc1 (stereo not drawn),inactive: 0.12%

row,SMILES,inhibition
1,CP(=O)(Nc1ccc(SC(F)(F)F)cc1)Oc1ccccc1 (stereo not drawn),inactive: 0.17%
2,Cc1nc2ccc3ccccc3c2s1.O=[N+]([O-])c1cc([N+](=O)[O-])c(O)c([N+](=O)[O-])c1,inactive: -1.13%
3,O=[N+]([O-])c1cc([N+](=O)[O-])c(-n2nnc3ccccc32)c([N+](=O)[O-])c1,inactive: 0%
4,CCOC(=O)c1ccc(NP(C)(=O)Oc2ccc(OC)cc2)cc1 (stereo not drawn),inactive: 0.46%
5,CCOP(C)(=S)SCC(=O)NC(C)C(=O)O (stereo not drawn),inactive: 0.03%
6,CP(=O)(Nc1ccccn1)Oc1ccc(Cl)cc1 (stereo not drawn),inactive: 0.23%
7,Cc1cccc(C)c1OP(C)(=O)Nc1ccc(SC(F)(F)F)cc1 (stereo not drawn),inactive: -0.31%
8,CP(=O)(Oc1ccccc1)OC(c1ccccc1)C(F)(F)F (stereo not drawn),inactive: 1.01%
9,CP(=O)(NC(=O)Nc1ccccc1)Oc1ccccc1 (stereo not drawn),inactive: 0.1%
10,Cc1cc(C)cc(OP(C)(=O)Nc2ccc(SC(F)(F)F)cc2)c1 (stereo not drawn),inactive: 0.5%
11,CP(=S)(Nn1cnnc1)Oc1ccccc1 (stereo not drawn),inactive: 0.6%
12,CP(=O)(Nc1ccccc1Br)Oc1ccccc1 (stereo not drawn),inactive: 0.24%
13,COc1ccccc1OP(C)(=O)Nc1ccccc1 (stereo not drawn),inactive: 0.14%
14,COc1ccccc1OP(C)(=O)Nc1ccc(C)cc1 (stereo not drawn),inactive: -0.18%
15,Cc1ccc(NP(C)(=O)Oc2ccccc2)c(C)c1 (stereo not drawn),inactive: 0.9%
16,CCOC(=O)c1ccc(NP(C)(=O)Oc2ccccc2)cc1 (stereo not drawn),inactive: -1.37%
17,COc1ccccc1OP(C)(=O)Nc1cc(Cl)ccc1C (stereo not drawn),inactive: 0.39%
18,COc1ccc(OP(C)(=O)Nc2cccc(F)c2)cc1 (stereo not drawn),inactive: 0.28%
19,O=[N+]([O-])c1ccc2c(c1)C=Nc1ccccc1O2,inactive: 0.33%
20,CC(C)(C)c1ccc(OP(C)(=O)Nc2ccc(SC(F)(F)F)cc2)cc1 (stereo not drawn),inactive: 0.58%
21,Cc1cccc(C)c1OP(C)(N)=O (stereo not drawn),inactive: 0.43%
22,CCN(CC)CCCOC(=O)C(O)(c1ccccc1)c1ccccc1,inactive: 1.66%
